This test has as its target 5-HT1A (Homo sapiens, UniProt P08908). Kind of test: 5-HT1A-mediated cAMP reduction assay (GloSensor, HEK293-T). The conditions noted are these: Table 6, commercial ligands.

Sequences of proteins named here, by UniProt entry; tags and fusion partners are left off.
UniProt P08908, whole entry: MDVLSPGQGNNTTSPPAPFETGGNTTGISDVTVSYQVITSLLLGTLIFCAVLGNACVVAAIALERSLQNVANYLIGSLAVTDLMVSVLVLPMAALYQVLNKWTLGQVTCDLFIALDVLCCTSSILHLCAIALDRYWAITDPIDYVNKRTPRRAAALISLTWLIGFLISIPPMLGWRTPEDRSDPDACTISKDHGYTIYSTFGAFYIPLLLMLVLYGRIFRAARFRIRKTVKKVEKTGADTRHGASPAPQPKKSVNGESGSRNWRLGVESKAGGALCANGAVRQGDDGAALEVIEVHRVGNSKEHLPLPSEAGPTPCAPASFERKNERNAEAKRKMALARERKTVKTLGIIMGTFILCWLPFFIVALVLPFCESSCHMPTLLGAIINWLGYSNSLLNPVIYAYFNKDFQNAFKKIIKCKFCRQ

With `CCCN(CCC)C1CCc2cccc(O)c2C1` (stereo not shown) [Compound 8-OH-DPAT, 8-OH-DPAT, reference compound], the “Efficacy as %5HT 5-HT1A cAMP” value was found to be 108.5 %5HT.

(Values after patent US20260034119A1, “5-METHOXY-N,N-[…][…], THEIR […], AND METHODS FOR TREATMENT OF NEUROLOGICAL, […], AND SUBSTANCE USE DISORDERS” (priority 2023, published 2026).)
